Protein sequences, listed by entry. Tags and fused reporters are not part of them. Chains listed by the source or under a name are the forms on record and can include a tag or linker. Residues count along the entry.
UniProt Q9Y233, 267-1055: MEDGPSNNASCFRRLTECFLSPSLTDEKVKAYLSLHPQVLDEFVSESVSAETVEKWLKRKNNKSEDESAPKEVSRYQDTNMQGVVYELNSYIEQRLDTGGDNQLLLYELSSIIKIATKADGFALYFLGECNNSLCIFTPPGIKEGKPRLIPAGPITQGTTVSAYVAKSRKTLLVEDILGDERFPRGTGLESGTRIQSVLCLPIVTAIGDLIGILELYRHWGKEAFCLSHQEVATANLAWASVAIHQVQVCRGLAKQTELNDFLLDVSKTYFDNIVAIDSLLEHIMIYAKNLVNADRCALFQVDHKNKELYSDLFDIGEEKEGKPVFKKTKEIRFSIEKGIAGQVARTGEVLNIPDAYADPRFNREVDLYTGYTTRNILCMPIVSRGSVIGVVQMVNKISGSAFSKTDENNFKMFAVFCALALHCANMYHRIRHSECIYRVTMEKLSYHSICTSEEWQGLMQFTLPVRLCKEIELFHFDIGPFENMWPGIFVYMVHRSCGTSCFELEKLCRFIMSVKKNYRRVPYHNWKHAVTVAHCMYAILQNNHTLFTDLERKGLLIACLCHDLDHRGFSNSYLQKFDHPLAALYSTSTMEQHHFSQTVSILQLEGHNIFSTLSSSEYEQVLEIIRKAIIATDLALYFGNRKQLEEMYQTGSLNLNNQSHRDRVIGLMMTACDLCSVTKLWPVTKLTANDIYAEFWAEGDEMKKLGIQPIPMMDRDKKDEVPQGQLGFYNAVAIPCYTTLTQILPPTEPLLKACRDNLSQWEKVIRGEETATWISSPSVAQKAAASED
UniProt Q9Y233, 1-779 with tags or gaps: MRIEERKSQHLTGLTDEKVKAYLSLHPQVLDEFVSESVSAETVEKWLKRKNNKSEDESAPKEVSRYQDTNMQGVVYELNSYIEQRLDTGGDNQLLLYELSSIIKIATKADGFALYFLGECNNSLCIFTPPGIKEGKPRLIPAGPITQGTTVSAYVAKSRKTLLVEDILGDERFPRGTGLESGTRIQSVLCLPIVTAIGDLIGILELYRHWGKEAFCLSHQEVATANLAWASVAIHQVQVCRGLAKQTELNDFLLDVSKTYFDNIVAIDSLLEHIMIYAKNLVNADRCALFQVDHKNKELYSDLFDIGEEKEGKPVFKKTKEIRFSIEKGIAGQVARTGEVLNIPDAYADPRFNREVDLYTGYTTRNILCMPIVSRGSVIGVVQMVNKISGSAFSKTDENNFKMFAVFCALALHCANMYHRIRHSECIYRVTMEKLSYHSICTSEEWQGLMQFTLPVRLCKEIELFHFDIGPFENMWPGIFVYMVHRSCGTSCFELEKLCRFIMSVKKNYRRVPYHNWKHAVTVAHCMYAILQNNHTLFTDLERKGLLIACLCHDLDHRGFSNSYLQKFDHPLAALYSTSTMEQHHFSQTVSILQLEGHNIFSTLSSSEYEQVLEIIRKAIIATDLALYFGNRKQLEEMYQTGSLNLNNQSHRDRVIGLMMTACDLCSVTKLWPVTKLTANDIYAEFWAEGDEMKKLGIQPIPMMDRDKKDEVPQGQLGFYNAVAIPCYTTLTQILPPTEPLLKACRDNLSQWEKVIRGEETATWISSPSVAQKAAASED
UniProt P54750, whole entry: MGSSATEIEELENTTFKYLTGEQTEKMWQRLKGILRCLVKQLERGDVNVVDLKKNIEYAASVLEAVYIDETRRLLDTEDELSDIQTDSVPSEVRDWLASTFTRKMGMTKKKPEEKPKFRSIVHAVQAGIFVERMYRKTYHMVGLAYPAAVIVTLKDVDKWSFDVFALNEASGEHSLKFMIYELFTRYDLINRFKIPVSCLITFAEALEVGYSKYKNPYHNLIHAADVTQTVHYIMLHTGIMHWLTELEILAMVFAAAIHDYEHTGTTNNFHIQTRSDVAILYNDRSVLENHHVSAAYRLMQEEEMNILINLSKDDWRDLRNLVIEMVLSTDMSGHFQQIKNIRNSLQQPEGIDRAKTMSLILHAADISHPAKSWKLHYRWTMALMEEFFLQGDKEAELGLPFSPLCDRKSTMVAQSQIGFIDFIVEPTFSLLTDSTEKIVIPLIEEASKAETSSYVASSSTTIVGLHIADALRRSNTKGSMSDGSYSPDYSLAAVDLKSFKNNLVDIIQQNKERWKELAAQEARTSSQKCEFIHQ
UniProt Q01064, whole entry: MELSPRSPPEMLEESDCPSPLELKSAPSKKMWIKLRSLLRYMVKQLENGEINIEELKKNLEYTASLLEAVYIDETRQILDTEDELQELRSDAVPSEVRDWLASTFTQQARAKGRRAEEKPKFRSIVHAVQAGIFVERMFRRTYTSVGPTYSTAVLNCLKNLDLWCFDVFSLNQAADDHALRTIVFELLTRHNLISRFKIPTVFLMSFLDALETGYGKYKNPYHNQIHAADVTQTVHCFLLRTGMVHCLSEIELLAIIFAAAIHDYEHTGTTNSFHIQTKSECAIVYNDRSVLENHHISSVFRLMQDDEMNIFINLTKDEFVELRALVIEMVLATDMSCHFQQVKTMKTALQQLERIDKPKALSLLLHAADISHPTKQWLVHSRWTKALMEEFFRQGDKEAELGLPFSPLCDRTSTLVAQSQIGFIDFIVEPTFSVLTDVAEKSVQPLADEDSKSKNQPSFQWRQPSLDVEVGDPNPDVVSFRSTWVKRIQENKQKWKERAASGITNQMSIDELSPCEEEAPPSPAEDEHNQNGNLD
UniProt P27815, 1-647 with tags or gaps: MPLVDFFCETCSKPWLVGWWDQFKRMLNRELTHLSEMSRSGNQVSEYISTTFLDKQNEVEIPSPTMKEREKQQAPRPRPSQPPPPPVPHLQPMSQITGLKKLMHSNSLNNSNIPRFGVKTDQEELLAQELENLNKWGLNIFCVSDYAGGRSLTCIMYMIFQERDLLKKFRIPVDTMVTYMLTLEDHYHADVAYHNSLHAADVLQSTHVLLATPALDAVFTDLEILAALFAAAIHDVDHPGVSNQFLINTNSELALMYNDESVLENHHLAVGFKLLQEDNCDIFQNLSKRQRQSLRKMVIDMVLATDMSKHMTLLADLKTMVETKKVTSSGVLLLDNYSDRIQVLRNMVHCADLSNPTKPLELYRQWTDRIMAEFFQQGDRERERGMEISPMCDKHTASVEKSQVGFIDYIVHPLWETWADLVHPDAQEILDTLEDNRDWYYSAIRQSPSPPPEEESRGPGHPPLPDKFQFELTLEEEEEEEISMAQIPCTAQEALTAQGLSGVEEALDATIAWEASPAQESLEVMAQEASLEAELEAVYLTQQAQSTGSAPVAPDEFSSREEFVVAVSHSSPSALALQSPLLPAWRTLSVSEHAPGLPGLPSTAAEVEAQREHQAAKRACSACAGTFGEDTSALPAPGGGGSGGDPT
UniProt Q08493, whole entry: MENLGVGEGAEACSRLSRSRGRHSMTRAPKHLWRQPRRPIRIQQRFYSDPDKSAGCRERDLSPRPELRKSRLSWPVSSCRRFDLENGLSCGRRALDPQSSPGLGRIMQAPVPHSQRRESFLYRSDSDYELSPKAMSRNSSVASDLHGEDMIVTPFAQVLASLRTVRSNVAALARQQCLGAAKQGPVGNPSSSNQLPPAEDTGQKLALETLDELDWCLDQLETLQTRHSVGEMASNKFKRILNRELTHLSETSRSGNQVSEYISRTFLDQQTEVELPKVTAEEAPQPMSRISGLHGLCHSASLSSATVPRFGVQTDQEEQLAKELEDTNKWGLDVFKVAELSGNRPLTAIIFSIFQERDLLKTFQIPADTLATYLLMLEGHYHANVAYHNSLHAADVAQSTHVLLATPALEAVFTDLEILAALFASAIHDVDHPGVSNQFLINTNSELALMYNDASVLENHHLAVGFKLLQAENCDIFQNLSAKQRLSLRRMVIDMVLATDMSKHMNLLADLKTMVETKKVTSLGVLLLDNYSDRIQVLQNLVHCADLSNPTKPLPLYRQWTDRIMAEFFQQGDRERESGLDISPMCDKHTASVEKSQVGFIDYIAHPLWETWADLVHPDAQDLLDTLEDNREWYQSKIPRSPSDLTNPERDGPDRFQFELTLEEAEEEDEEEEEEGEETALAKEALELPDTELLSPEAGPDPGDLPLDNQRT
UniProt Q08499, 1-673 with tags or gaps: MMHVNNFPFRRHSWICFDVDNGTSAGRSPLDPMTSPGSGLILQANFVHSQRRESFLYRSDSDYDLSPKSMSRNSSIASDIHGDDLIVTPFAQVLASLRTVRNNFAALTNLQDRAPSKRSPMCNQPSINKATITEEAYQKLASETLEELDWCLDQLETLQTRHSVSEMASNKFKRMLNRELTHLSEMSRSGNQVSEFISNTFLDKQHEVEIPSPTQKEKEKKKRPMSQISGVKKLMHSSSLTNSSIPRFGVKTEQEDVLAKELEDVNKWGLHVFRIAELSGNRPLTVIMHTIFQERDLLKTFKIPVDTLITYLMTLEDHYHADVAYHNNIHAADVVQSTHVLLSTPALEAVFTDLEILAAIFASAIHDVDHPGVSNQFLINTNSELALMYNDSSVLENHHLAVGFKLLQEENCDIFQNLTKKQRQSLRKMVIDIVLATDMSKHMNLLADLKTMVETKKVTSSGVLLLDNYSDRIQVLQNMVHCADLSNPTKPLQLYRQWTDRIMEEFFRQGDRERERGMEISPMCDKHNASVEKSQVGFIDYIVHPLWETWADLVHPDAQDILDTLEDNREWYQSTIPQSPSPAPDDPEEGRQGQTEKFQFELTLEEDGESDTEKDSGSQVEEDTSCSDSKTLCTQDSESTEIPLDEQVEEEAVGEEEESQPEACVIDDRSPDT
UniProt P51160, whole entry: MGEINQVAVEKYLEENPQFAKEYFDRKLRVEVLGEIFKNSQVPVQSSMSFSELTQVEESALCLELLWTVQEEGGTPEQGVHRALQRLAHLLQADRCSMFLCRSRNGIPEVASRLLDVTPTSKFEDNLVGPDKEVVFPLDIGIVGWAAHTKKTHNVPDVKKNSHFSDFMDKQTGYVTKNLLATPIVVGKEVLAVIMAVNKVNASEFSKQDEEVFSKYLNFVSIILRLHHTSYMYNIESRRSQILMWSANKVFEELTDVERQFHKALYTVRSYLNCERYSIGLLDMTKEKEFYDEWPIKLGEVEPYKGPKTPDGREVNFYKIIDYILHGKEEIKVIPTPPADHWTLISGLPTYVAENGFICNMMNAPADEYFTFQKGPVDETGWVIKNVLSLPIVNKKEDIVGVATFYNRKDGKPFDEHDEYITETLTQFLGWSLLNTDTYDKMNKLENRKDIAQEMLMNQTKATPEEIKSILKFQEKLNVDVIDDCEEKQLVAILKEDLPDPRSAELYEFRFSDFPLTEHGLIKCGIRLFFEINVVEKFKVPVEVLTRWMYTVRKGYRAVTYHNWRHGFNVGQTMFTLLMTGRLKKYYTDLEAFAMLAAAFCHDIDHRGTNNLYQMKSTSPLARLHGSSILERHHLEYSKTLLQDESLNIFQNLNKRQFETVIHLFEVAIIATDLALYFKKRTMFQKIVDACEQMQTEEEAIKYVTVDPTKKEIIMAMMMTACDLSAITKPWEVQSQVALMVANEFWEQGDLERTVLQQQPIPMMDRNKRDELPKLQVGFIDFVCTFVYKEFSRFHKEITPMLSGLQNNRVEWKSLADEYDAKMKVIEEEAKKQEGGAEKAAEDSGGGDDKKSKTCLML
UniProt Q13946, whole entry: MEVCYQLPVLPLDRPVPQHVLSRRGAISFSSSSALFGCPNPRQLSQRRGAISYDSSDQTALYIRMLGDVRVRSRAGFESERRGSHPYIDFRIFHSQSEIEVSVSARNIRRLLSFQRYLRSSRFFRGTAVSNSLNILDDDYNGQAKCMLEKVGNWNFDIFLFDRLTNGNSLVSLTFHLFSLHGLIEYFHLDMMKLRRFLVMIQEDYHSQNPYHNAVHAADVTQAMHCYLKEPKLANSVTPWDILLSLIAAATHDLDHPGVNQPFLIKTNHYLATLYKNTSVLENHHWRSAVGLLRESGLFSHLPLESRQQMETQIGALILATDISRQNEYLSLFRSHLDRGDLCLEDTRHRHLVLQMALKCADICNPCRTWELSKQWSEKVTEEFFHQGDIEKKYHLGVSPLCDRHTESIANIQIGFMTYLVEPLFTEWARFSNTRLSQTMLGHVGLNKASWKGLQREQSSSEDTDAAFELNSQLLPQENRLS
UniProt O76083, with tags, fused parts or gaps: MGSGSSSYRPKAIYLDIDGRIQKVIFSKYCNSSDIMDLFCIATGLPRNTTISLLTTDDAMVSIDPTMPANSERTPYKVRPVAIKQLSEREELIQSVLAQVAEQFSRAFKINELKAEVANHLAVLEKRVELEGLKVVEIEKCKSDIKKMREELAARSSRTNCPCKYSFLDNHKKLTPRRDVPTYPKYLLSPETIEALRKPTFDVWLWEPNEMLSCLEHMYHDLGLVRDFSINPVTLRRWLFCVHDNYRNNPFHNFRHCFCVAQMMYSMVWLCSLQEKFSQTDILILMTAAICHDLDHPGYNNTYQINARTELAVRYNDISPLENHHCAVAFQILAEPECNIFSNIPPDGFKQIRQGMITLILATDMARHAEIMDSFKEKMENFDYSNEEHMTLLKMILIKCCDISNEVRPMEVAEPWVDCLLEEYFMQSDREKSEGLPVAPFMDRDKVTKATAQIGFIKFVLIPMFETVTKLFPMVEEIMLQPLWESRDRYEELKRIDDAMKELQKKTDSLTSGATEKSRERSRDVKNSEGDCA

According to patent EP4825857A1, “TRICYCLIC FUSED HETEROCYCLIC PDE3/4 DUAL INHIBITOR, AND PREPARATION AND USE THEREFOR” (dated 2026):

Assays:
[1] = system: Salmonella typhimurium TA97a, TA98, TA100, TA102, and TA1535; assay: Mutagenicity and bacterial toxicity in Salmonella typhimurium (reverse mutation, dose-range finding); details: 5000 to 50 µg/plate; for mutagenic activity: in the absence or presence of metabolic activation (S9); for bacterial toxicity: in the presence and absence of metabolic activation (S9)
Description: The bacterial toxicity and potential mutagenicity of Compound 1-2, Compound 10-2, Compound 12-1, and Compound 19 to Salmonella typhimurium were evaluated separately to determine the optimal dose ranges for subsequent mutagenesis assays in Salmonella typhimurium.
The assay was performed using five histidine auxotrophic Salmonella typhimurium strains, namely TA97a, TA98, TA100, TA102, and TA1535, supplied by JOINN Laboratories (Suzhou) Co., Ltd. Each bacterial strain system was treated with the test compound at doses of 5000, 1500, 500, 150, and 50 µg/plate in the absence or presence of metabolic activation. A vehicle control group, DMSO, was also included. For each test point, duplicate plates were set both in the presence of metabolic activation (+S9, with S9 mix) and in the absence of metabolic activation (-S9, without S9 mix). Strains TA97a, TA98, TA100, and TA1535 were incubated at 37°C for approximately 48 h, and strain TA102 was incubated at 37°C for approximately 72 h. Revertant colonies were counted for each plate, and the background lawn was examined microscopically. […] For strains TA98, TA102, and TA1535, toxicity could not be evaluated with 5000 µg/plate of the test compound because precipitation was observed on the plates. No obvious bacterial toxicity was observed under the other test conditions. […] For strains TA97a, TA98, TA100, TA102, and TA1535 with 5000 µg/plate of the test compound, for strains TA97a, TA98, TA102, and TA1535 with 1500 µg/plate of the test compound, and for strain TA102 with 500 µg/plate of the test compound, colonies could not be counted due to precipitation on the plates, and toxicity could not be evaluated. No obvious bacterial toxicity was observed under the other test conditions. […] For strains TA97a, TA98, and TA102 both in the presence and absence of metabolic activation, and for strain TA100 in the presence of metabolic activation, colonies could not be counted due to precipitation, and toxicity could not be evaluated. No obvious bacterial toxicity was observed under the other test conditions. […] No obvious bacterial toxicity was observed under the other test conditions.

[2] = target: PDE10A1 (Homo sapiens, UniProt Q9Y233); assay: PDE enzyme activity inhibition assay II (fluorescence polarization); details: read-out: IC50, nM PDE10A1; FP assay II, Table 5
Description: (§1) In a reaction buffer, i.e., 1× IMAP Reaction Buffer containing 0.1% BSA and supplemented with 1 mM DTT, a PDE enzyme solution and a substrate solution (FAM-cyclic AMP/cyclic AMP) were prepared. The positive control was prepared at an initial concentration of 1/10 µM for the PDE assay and was diluted 3-fold, with a 10+0 dose design. Using the acoustic liquid handling technology (Echo 655), 0.05 µL of each compound in 100% DMSO was transferred into a 384-well plate (Corning 4514), followed by centrifugation at 1,000 rpm for 1 min. Then, 2.5 µL of the PDE enzyme solution was transferred into the 384-well reaction plate, followed by centrifugation at 1,000 rpm for 1 min and incubation at 25 °C for 10 min. Subsequently, 2.5 µL of the substrate solution was transferred into the 384-well reaction plate, followed by centrifugation at 1,000 rpm for 1 min and incubation at 25 °C for 60 min. Then, 15 µL of a binding reagent mixture was transferred into the 384-well reaction plate, followed by centrifugation at 1,000 rpm for 1 min and incubation at 25 °C for 60 min. Finally, the FP signal was measured using a BMG PHERAstar FSX plate reader. IC50 values and nonlinear regression curve fitting were obtained using GraphPad Prism software.
(§2) The inhibitory activities of the compounds against PDE enzymes were evaluated using the FP method, with RPL-554 and compound D7 as control compounds. The detailed test method was the same as that described in PDE Enzyme Activity Inhibition Assay I. The structural formulae of RPL-554 and compound D7 are shown below. [drawing 183]

[3] = target: PDE10A2 (Homo sapiens, UniProt Q9Y233); assay: as above; details: read-out: IC50, nM PDE10A2; FP assay II, Table 5
Description: as §1, §2

[4] = target: PDE11A4 (Homo sapiens, UniProt Q9HCR9); assay: as above; details: read-out: IC50, nM PDE11A4; FP assay II, Table 5
Description: as §1, §2

[5] = target: PDE1A (Homo sapiens, UniProt P54750); assay: as above; details: read-out: IC50, nM PDE1A; FP assay II, Table 5
Description: as §1, §2

[6] = target: PDE1B (Homo sapiens, UniProt Q01064); assay: as above; details: read-out: IC50, nM PDE1B; FP assay II, Table 5
Description: as §1, §2

[7] = target: PDE1C (Homo sapiens, UniProt Q14123); assay: as above; details: read-out: IC50, nM PDE1C; FP assay II, Table 5
Description: as §1, §2

[8] = target: PDE4A1 (Homo sapiens, UniProt P27815); assay: as above; details: read-out: IC50, nM PDE4A1; FP assay II, Table 5
Description: as §1, §2

[9] = target: PDE4B1 (Homo sapiens, UniProt Q07343); assay: as above; details: read-out: IC50, nM PDE4B1; FP assay II, Table 5
Description: as §1, §2

[10] = target: PDE4C1 (Homo sapiens, UniProt Q08493); assay: as above; details: read-out: IC50, nM PDE4C1; FP assay II, Table 5
Description: as §1, §2

[11] = target: PDE4D3 (Homo sapiens, UniProt Q08499); assay: as above; details: read-out: IC50, nM PDE4D3; FP assay II, Table 5
Description: as §1, §2

[12] = target: PDE6C (Homo sapiens, UniProt P51160); assay: as above; details: read-out: IC50, nM PDE6C; FP assay II, Table 5
Description: as §1, §2

[13] = target: PDE7A1 (Homo sapiens, UniProt Q13946); assay: as above; details: read-out: IC50, nM PDE7A1; FP assay II, Table 5
Description: as §1, §2

[14] = target: PDE8A1 (Homo sapiens, UniProt O60658); assay: as above; details: read-out: IC50, nM PDE8A1; FP assay II, Table 5
Description: as §1, §2

[15] = target: PDE9A2 (Homo sapiens, UniProt O76083); assay: as above; details: read-out: IC50, nM PDE9A2; FP assay II, Table 5
Description: as §1, §2

`COc1cc2c(cc1OC)-c1cc(N(c3c(C)cc(C)cc3C)C(C)CNC(=O)c3[nH]nnc3C)nc(=O)n1CC2` (single isomer, unassigned) [Compound 12-1] was tested, and the mutagenic activity [1] was “no mutagenic activity” and the bacterial toxicity [1] was “No obvious bacterial toxicity was observed under the other test conditions”.
For `COc1cc2c(cc1OC)-c1cc(N(c3c(C)cc(C)cc3C)C(C)CNC(=O)c3ccccn3)nc(=O)n1CC2` (stereo not drawn), the mutagenic activity [1] was “no mutagenic activity” and the bacterial toxicity [1] was “No obvious bacterial toxicity was observed under the other test conditions”.
`COc1cc2c(cc1OC)-c1cc(N(c3c(C)cc(C)cc3C)C(C)CNC(=O)c3ncc[nH]3)nc(=O)n1CC2` (single isomer, unassigned) [Compound 10-2] was tested, and the mutagenic activity [1] was “no mutagenic activity” and the bacterial toxicity [1] was “bacterial toxicity was observed in strain TA100 with 1500 µg/plate”.
`COc1cc2c(cc1OC)-c1cc(=Nc3c(C)cc(C)cc3C)n(CCNC(N)=O)c(=O)n1CC2` showed an IC50 [2] of 892 nM, an IC50 [3] of 680 nM and an IC50 [4] of over 10000 nM. The IC50 [5] was over 10000 nM, the IC50 [6] was over 10000 nM and the IC50 [7] was over 10000 nM. The IC50 [8] was 74.7 nM, the IC50 [9] was 450 nM and the IC50 [10] was 547 nM. The IC50 [11] was 182 nM, the IC50 [12] was over 10000 nM and the IC50 [13] was over 10000 nM. For the same compound, the IC50 [14] was over 10000 nM and the IC50 [15] was over 10000 nM.
Compound `COc1cc2c(cc1OC)-c1cc(N(c3c(C)cc(C)cc3C)C(C)CNC(N)=O)nc(=O)n1CC2` (single isomer, unassigned) [Compound 1-2] has an IC50 [2] of 65.9 nM, an IC50 [3] of 48.3 nM and an IC50 [4] of 1640 nM. The IC50 [5] was 5460 nM, the IC50 [6] was 521 nM and the IC50 [7] was 3790 nM. For the same compound, the IC50 [8] was 47.8 nM, the IC50 [9] was 269 nM and the IC50 [10] was 618 nM. The IC50 [11] was 96.2 nM, the IC50 [12] was 9330 nM and the IC50 [13] was over 10000 nM. The IC50 [14] was 266 nM, the IC50 [15] was over 10000 nM and the mutagenic activity [1] was “no mutagenic activity”. The bacterial toxicity [1] was “bacterial toxicity was observed in strains TA97a and TA100 with 5000 µg/plate”.
